Test results published in patent US5180831A (priority 1990, dated 1993).

Chains of the proteins cited; added tags and fusions are not shown. Residues count along the entry.
UniProt P22303, 32-617 isoform 2 limits assumed: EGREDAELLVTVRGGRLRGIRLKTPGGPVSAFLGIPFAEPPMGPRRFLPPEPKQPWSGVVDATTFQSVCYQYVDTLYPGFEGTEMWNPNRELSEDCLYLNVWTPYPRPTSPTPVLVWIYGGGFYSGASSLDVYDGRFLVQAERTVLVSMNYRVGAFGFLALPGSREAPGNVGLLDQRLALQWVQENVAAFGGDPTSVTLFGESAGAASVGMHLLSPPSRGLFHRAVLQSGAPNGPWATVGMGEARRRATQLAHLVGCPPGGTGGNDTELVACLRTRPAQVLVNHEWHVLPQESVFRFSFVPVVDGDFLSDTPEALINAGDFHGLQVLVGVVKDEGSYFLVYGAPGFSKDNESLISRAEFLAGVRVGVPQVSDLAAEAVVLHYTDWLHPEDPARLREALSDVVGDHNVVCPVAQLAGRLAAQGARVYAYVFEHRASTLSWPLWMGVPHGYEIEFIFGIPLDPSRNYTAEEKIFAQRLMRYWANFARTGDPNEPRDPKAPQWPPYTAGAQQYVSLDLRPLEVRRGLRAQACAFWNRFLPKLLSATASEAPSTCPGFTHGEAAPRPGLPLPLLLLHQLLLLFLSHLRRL

Assays:
AChE = experiment: Irreversible inactivation of AChE, enzyme source not specified
human erythrocyte AChE = human erythrocyte AChE (Homo sapiens, UniProt P22303); experiment: Irreversible inhibition of human erythrocyte AChE; format: biochemical; conditions: human AChE in vitro

Row | SMILES | half-life for inactivation (AChE) | anti AChE activity compared with pyridostigmine or physostigmine (human erythrocyte AChE)
1 | COc1ccc(CON=Cc2c(OC(=O)N(C)C)ccc[n+]2C)cc1 | about 9 sec | greater anti AChE activity
2 | CN(C)C(=O)Oc1ccc[n+](C)c1C=NOCc1ccccc1 | – | greater anti AChE activity
